Results: PubChem BioAssay (NCATS)
Only a part is listed here, and it is no random draw. Results filed as inconclusive are left out. Some structures show a salt or complex split into parts, the way the source records it. The source made the active and inactive calls. Unless noted, the call rests on the fitted dose curve; in most records, active means well fitted curve in the direction sought with a large enough effect; inconclusive means small, poorly fitted or top-dose-only effect, or another doubt; inactive means no such curve, though single readings can be large; an effect the other way counts as inactive or inconclusive.

Chains of the proteins cited; added tags and fusions are not shown.
UniProt O15297, whole entry: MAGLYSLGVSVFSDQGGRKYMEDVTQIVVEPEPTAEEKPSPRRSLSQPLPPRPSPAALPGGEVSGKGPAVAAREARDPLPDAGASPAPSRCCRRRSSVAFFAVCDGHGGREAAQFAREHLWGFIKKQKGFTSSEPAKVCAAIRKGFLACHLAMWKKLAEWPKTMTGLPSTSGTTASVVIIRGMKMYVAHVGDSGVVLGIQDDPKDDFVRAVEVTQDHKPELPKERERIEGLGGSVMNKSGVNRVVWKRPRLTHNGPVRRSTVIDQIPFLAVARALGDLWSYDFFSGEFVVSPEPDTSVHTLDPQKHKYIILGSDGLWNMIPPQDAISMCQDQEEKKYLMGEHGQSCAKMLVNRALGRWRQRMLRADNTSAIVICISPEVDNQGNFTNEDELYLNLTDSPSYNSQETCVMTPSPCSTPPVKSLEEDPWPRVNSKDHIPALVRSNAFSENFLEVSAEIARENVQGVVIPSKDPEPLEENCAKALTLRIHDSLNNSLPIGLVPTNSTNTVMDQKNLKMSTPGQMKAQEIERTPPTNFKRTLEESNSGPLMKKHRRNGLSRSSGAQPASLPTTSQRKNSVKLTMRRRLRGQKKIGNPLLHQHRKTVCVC
UniProt Q99828, whole entry: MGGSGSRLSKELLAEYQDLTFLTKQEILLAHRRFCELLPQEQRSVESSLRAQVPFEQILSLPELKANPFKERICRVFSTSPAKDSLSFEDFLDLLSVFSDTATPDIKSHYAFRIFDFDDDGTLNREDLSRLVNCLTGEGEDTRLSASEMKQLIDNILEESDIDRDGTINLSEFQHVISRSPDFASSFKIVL
UniProt P10635, whole entry: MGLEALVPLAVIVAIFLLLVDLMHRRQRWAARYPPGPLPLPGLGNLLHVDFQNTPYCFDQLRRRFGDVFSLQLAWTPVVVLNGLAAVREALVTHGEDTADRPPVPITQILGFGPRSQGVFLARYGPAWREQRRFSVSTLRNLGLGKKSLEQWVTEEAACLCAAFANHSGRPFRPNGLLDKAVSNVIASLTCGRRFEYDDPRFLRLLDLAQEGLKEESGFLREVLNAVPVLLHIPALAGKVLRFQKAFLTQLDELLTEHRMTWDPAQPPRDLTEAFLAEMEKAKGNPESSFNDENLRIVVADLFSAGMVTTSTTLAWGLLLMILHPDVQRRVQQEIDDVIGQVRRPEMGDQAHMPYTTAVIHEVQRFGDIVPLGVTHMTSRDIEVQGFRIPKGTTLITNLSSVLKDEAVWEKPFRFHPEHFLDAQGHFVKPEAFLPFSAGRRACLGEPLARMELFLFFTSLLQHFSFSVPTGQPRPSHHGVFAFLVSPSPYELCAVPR
UniProt P08684, whole entry: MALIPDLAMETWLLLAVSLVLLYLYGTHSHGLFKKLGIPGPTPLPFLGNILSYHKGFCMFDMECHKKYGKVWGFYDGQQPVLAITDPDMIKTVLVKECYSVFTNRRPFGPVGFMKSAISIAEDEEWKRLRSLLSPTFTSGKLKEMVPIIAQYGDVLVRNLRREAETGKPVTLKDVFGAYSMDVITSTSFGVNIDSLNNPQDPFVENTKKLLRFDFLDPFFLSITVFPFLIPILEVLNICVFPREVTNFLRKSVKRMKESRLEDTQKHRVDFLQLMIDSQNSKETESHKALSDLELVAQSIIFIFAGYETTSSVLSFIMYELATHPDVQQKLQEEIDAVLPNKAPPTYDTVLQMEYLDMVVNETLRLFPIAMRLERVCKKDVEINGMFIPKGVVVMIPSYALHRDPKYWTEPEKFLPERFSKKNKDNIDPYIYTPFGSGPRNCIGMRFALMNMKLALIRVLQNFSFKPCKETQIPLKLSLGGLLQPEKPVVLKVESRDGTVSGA
UniProt P11712, whole entry: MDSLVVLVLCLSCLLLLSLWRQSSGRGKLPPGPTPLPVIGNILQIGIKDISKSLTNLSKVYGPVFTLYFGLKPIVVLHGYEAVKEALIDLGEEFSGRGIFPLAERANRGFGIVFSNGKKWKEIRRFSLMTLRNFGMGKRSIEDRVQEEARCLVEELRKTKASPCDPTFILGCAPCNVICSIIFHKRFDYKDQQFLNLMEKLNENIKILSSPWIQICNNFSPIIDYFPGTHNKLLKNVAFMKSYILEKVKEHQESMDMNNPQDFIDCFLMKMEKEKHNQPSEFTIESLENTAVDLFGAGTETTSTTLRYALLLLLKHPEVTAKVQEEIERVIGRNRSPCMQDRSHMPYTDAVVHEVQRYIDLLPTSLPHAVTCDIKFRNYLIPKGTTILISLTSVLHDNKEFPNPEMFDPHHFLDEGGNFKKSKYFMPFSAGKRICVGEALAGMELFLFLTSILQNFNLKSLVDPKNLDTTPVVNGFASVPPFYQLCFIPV

Assays:
[1] = qHTS of pediatric cancer cell lines to identify multiple opportunities for drug repurposing: Primary screen for Rh30 cells (AID 1347107); conditions: Rh30 rhabdomyosarcoma viability, CellTiter-Glo luminescence, 48 h; at 46 µM (top of the series) unless noted; further: on the % scale 0 is the no-effect control and ±100 the full control effect; nearly all actives have a fitted effect of over 75% in size
Procedure, shortened: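 Cells (500-1,000/well) in growth media were settled 5 h at 37 degrees C, then given compounds for 48 h. Viability was read as CellTiter-Glo luminescence. Primary runs used MIPE at 11 points (0.78 nM-46 µM) and NPC at 8 points (0.59 nM-46 µM); follow-ups used 11 points.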

[2] = qHTS to identify inhibitors of the type 1 interferon - major histocompatibility complex class I in skeletal muscle: primary screen against the NCATS Pharmaceutical Collection (AID 1347407); conditions: human skeletal muscle cells, IFN-b-induced MHC-I HiBiT luminescence, 24 h; at 45.9 µM (top of the series) unless noted;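 further: luminescence of HiBiT knocked into endogenous HLA-B as interferon-induced MHC class I level; on the % scale 0 is the no-effect control and ±100 the full control effect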
Procedure, shortened: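 A qHTS format is used: 8-point, 1:5 compound series with 46 uM top final concentration, applied alongside 4 ng/ml IFN-beta to HLA-B*08:01-HiBiT knock-in myoblasts. Luminescence is measured after 24 h treatment.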

[3] = target: Protein phosphatase 1D (Homo sapiens) (UniProt O15297); assay: RapidFire Mass Spectrometry qHTS Assay for Modulators of WT P53-Induced Phosphatase 1 (WIP1) (AID 1347424); conditions: WIP1 dephosphorylation of phosphopeptide, RapidFire MS; at 63 µM (top of the series) unless noted;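 further: amount of dephosphorylated VEPPL-S-QETFS peptide product formed by WIP1; plate controls were DMSO wells for no effect and GSK830371 inhibitor control at 10 µM for full effect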
Procedure, shortened: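 Mass-spectrometric measurement of dephosphorylated peptide after a 5 min room-temperature reaction of 10 nM WIP1 with 2 uM phosphopeptide, following 1 h compound preincubation in 30 mM MgCl2 buffer.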

[4] = target: Protein phosphatase 1D (Homo sapiens) (UniProt O15297); assay: Rhodamine-PBP qHTS Assay for Modulators of WT P53-Induced Phosphatase 1 (WIP1) (AID 1347425); conditions: recombinant WIP1, Rhodamine-PBP phosphate fluorescence, real-time; at 57.5 µM (top of the series) unless noted; further: % of control where 0% means no effect
Procedure, shortened: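 WIP1 (5 nM final) was preincubated with compound for 1 hour at room temperature. It then dephosphorylated 10 uM VEPPL-pS-QETFS peptide in Tris-HCl pH 7.5 with 30 mM MgCl2. Released Pi was detected by 10 uM Rh-PBP fluorescence (ex 525/em 598 nm) read at 1-min intervals for 11 min, as delta f1 - f0.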

[5] = target: Calcium and integrin-binding protein 1 (Homo sapiens) (UniProt Q99828); assay: Primary qHTS for Identification of Calcium Integrin Binding Protein 1 (CIB1) Competitor (AID 1508620); conditions: CIB1-GST / FITC-alphaIIb peptide fluorescence polarization; at 114 µM (top of the series) unless noted;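 further: GST tagged CIB1 binding a fluorescein labelled alphaIIb integrin peptide tracer; top concentration of the series differs between compounds; on the % scale 0 is the no-effect control and ±100 the full control effect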
Procedure, shortened: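 Fluorescence polarization competition: CIB1-GST (1 uM final) preincubated with compound 15 min at room temperature, then FITC-labeled alphaIIb peptide (100 nM final) added for another 15 min. Polarization read at Ex 480/Em 540.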

[6] = Counterscreen qHTS for small molecule stabilizers of the endoplasmic reticulum resident proteome: GLuc-NoTag assay (AID 1508627); conditions: Gaussia luciferase NoTag secretion counterscreen, luminescence, thapsigargin 100 nM for final 4 h; at 76.4 µM (top of the series);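 further: 0% = thapsigargin alone and -100% = DMSO vehicle control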
Procedure, shortened: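 Secreted GLuc lacking the SERCaMP modification is measured in SH-SY5Y cells exposed to compound for 19 h and then to thapsigargin (100 nM, 4 h) to deplete ER calcium; hits retested at 11 concentrations, up to 76.6 uM.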

[7] = A High-Content qHTS Against Drug Library for the Identification of Small Molecules that Inhibit DYT1 Early Onset Primary Dystonia-Associated Cell Pathology (AID 1645839; calls by dose curve); conditions: HEK293 Flp-In EGFP-delE TorsinA, punctate imaging, 48 h; at 46.1 µM (top of the series) unless noted
Procedure, shortened: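 Induced EGFP-delE TorsinA cells are imaged after 48 h of compound treatment. Punctate fusion-protein distribution gives the %pathology value, while nuclei counts flag toxicity. Wild-type EGFP-hTOR1A cells define the normal pattern.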

[8] = target: Cytochrome P450 2D6 (Homo sapiens) (UniProt P10635); assay: Cytochrome P450 family 2 subfamily D member 6 (CYP2D6) small molecule antagonists: luciferase biochemical (cell-free) qHTS assay (AID 1645840; active means well fitted curve in the direction sought with a large enough effect in the repeat runs; an effect the other way counts as inactive or inconclusive; further: nearly all actives have a fitted effect of over 55% in size; further: potency means the concentration at half of the fitted maximal effect; on activity change, negative = inhibition: on the % scale 0 is the no-effect control and ±100 the full control effect)
Procedure, shortened: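 P450-Glo CYP2D6 system: proluciferin substrate converted by enzyme to luciferin, read by luminescence proportional to activity. Enzyme-substrate mix with compound 10 min at room temperature, then NADPH regeneration 1 h before detection reagent.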

[9] = target: Cytochrome P450 3A4 (Homo sapiens) (UniProt P08684); assay: Cytochrome P450 family 3 subfamily A member 4 (CYP3A4) small molecule antagonists: luciferase qHTS assay (AID 1645841; active means well fitted curve in the direction sought with a large enough effect in the repeat runs; an effect the other way counts as inactive or inconclusive; further: nearly all actives have a fitted effect of over 45% in size; further: potency means the concentration at half of the fitted maximal effect)
[10] = target: Cytochrome P450 2C9 (Homo sapiens) (UniProt P11712); assay: Cytochrome P450 family 2 subfamily C member 9 (CYP2C9) small molecule antagonists: luciferase qHTS assay (AID 1645842; active means well fitted curve in the direction sought with a large enough effect in the repeat runs; an effect the other way counts as inactive or inconclusive; further: on the % scale 0 is the no-effect control and ±100 the full control effect; nearly all actives have a fitted effect of over 55% in size); conditions: P450-Glo CYP2C9 enzyme assay, luciferin luminescence; at 57.4 µM (top of the series) unless noted
Procedure, shortened: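 P450-Glo CYP2C9 system: proluciferin substrate with enzyme in mix containing 0.4% BSA, 10 min at room temperature, then NADPH regeneration solution added and incubated 1 h at 37C. Detection reagent stopped reaction; luminescence read after 20 min as RLU.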

[11] = Primary qHTS for inhibitors of nuclear receptor binding SET domain protein 2 (NSD2) in an isogenic RCH-ACV NSD2 p.E1099K mutant (9B) (AID 1645876); conditions: RCH-ACV NSD2 E1099K (9B) viability, CellTiter-Glo, 72 h; at 44.9 µM (top of the series) unless noted; further: on the % scale 0 is the no-effect control and ±100 the full control effect; nearly all actives have a fitted effect of over 70% in size
[12] = Primary qHTS for inhibitors of nuclear receptor binding SET domain protein 2 (NSD2) in an RCH-ACV wild type WT cells (2C) (AID 1645877); conditions: RCH-ACV (leukaemia line) NSD2 WT (2C) viability, CellTiter-Glo, 72 h; at 44.9 µM (top of the series) unless noted; further: on the % scale 0 is the no-effect control and ±100 the full control effect; nearly all actives have a fitted effect of over 70% in size
From the text: Assay Provider: Jonathan D. Licht, MD
University of Florida College of Medicine, Gainesville, FL
Mutations in epigenetic regulators are common in relapsed pediatric acute lymphoblastic leukemia (ALL). Here, we uncovered the mechanism underlying the relapse of ALL driven by an activating mutation of the NSD2 histone methyltransferase (p.E1099K). […] Correction of this mutation restored glucocorticoid sensitivity. The transcriptional response to glucocorticoids was blocked in NSD2 mutant cells due to depressed glucocorticoid receptor (GR) levels and the failure of glucocorticoids to autoactivate GR expression. […] Pre-treatment of NSD2 p.E1099K cell lines and PDX samples with PRC2 inhibitors reversed glucocorticoid resistance in vitro and in vivo.
High-throughput drug screening of isogenic RCH-ACV cell lines was performed at the National Center for Advancing Translational Science (NCATS), National Institutes of Health as previously described (1). Briefly, isogenic RCH-ACV NSD2 p.E1099K mutant (9B) and WT cells (2C) were plated at 500 cells/well in a 1536-well plate with a 72-hour incubation with compounds prior to addition of CellTiter-Glo to assess cell viability. NCATS libraries screened include: NPC, MIPE 5.0, Kinase and NPACT. To determine compound activity in the qHTS assay, the concentration-response data for each sample was plotted and modeled by a four-parameter logistic fit yielding IC50 and efficacy (maximal response) values. The area under the curve (AUC) of the dose-response curve ensures both efficacy (magnitude of cell killing) and potency (concentration that elicits cell killing) are accounted for in the analysis of activity.
1. Tobie D Lee, Olivia W Lee, Kyle R Brimacombe, Lu Chen, Rajarshi Guha, Sabrina Lusvarghi, Bethilehem G Tebase, Carleen Klumpp-Thomas, Robert W Robey, Suresh V Ambudkar, Min Shen, Michael M Gottesman, Matthew D Hall. A High-Throughput Screen of a Library of Therapeutics Identifies Cytotoxic Substrates of P-glycoprotein. Mol Pharmacol. 2019, Nov;96(5):629-640.

[13] = qHTS to identify inhibitors of the type 1 interferon - major histocompatibility complex class I in skeletal muscle: primary screen against the NCATS Mechanism Interrogation Plate v5.0 (MIPE) Libary (AID 1347411); conditions: iHSKM cells + IFN-b, HiBiT-tagged MHC-I luminescence, 24 h; at 45.8 µM (top of the series);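 further: plate controls were vehicle for no effect and reference inhibitor for full effect; nearly all actives have a fitted effect of over 65% in size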
Procedure, shortened: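 Seed engineered human myoblasts (HLA-B HiBit) in medium without dexamethasone containing 4 ng/ml IFN-beta; after 1 hr add compound titrations (top 46 uM final). Incubate 24 hrs at 37 C, lyse 10 min with HiBiT reagent, read luminescence.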

[14] = qHTS of pediatric cancer cell lines to identify multiple opportunities for drug repurposing: Primary screen for Rh41 cells (AID 1347108); conditions: Rh41 rhabdomyosarcoma viability, CellTiter-Glo luminescence, 48 h; at 92.7 µM (top of the series) unless noted;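 further: luminescence drop marks cytotoxic hits; nearly all actives have a fitted effect of over 70% in size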
Procedure, shortened: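 Viability was measured as metabolically active cells after 48 hours of treatment, read by CellTiter-Glo luminescence. Compounds were tested at multiple final concentrations, giving concentration-response curves.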

SMILES	activity change, negative = cytotoxic [1]	activity change, negative = inhibition [2]	activity change, negative = inhibition [3]	activity change, negative = inhibition [4]	activity change, negative = inhibition [5]	activity change, negative = inhibition [6]	% pathology change, negative = correction [7]	Potency [8]	Potency [9]	activity change, negative = inhibition [10]	activity change, negative = viability loss [11]	activity change, negative = cell killing [12]	activity change, negative = inhibition [13]	activity change, negative = cytotoxic [14]
C/C1=C2N=C(/C=C3N=C(/C(C)=C4\[N-][C@@](C)([C@@H]5N=C1[C@](C)(CCC(=O)NC[C@@H](C)OP(=O)([O-])O[C@H]1[C@@H](O)[C@@H](n6cnc7cc(C)c(C)cc76)O[C@@H]1CO)[C@H]5CC(N)=O)[C@@](C)(CC(N)=O)[C@@H]4CCC(N)=O)[C@@](C)(CC(N)=O)[C@@H]\3CCC(N)=O)C(C)(C)[C@@H]/2CCC(N)=O.[C-]#N.[Co+3]	inactive: 2.38%	inactive: -28.7%	inactive: -1.15%	inactive: -17.9%	inactive: 9.8%	inactive: -41.8%	inactive: 0.893%	inactive	inactive	inactive: 14.6%	inactive: -8.28%	inactive: -16.8%		
C/C1=C2/N=C(C(CC(N)=O)C2(C)CCC(=O)NCC(C)OP(=O)([O-])OC2C(CO)OC(n3cnc4cc(C)c(C)cc43)C2O)C2(C)N=C(/C(C)=C3N=C(/C=C4N=C1C(CCC(N)=O)C\4(C)C)C(CCC(N)=O)C/3(C)CC(N)=O)C(CCC(N)=O)C2(C)CC(N)=O.[C-]#N.[Co] (configuration not stated)												inactive: -28.6%	inactive: -22.3%	
OCCSCCO	inactive: 20%	inactive: 0.0184%	inactive: 0.969%	inactive: 0.0359%	inactive: 0.989%		inactive: 1.9%	inactive	inactive	inactive: 16.9%	inactive: 6.98%	inactive: 9.55%		inactive: 26.7% [at 46 µM]
O=[N+]([O-])OCC(CO[N+](=O)[O-])(CO[N+](=O)[O-])CO[N+](=O)[O-]								inactive		inactive: -26.5%				
O=[N+]([O-])c1cccc([N+](=O)[O-])c1	inactive: 28.2% [at 92.7 µM]	inactive: -13.1% [at 92.2 µM]		inactive: 11.1% [at 116 µM]	inactive: -4.88% [at 228 µM]		inactive: 13.7% [at 91.7 µM]	active: 35 µM	active: 17.5 µM	inactive: 8.37% [at 115 µM]				inactive: 33.8%
